# Data published in patent publication US20130196986A1 (priority 2010, published 2013).
# By UniProt entry, the sequences of proteins in these tests, tags left out.
# UniProt Q99572, whole entry: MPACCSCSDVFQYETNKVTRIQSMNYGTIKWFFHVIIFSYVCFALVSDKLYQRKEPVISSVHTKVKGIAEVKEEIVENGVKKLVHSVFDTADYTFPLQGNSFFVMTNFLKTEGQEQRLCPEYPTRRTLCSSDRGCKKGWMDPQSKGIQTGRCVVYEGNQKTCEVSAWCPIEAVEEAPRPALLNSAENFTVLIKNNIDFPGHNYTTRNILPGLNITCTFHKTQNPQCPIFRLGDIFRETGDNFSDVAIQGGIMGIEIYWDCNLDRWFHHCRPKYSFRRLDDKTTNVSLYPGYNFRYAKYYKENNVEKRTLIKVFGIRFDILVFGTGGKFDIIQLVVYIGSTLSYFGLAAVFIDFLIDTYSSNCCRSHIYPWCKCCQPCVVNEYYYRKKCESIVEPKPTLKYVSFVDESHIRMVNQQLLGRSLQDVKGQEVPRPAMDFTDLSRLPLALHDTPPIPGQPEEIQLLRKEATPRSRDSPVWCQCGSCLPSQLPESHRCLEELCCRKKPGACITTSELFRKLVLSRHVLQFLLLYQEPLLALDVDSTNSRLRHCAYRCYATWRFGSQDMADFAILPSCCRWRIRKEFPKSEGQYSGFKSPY
# Target: P2X7 receptor (Homo sapiens, UniProt Q99572)
# Assay: Ca++ flux assay (FLIPR) in P2X7-HEK-293 cell line stably expressing the full length P2X7 receptor, Bz-ATP activation
# Details: read-out: P2X7 Ca Flux hu IC50 nM; P2X7-HEK-293 cells; agonist Bz-ATP; fluorescence as total area over 90 seconds
# Method: The ability of Triazolopyrazinone Compounds to inhibit P2X7 function can be determined in Ca^++ flux assay using a P2X7-HEK-293 cell line stably expressing the full length P2X7 receptor. The assay protocol is as described in Cheewatrakoolpong et al., Biochem. Biophys. Res. Commun. 332:17-27 (2005) with minor modification, and is as summarized hereinafter. Briefly, cells were plated in poly-D-lysine-coated wells, and incubated at 37° C. for 24 hours. Cells were then incubated for 1 hour with a loading buffer which contains a dye sensitive to changes in Ca^++ concentration (lx Calcium Plus no wash dye from Molecular Devices, Sunnyvale, Calif.). The test compounds were added to the wells in the dye loading step. Plates containing the wells were transferred to a Fluorometric Imaging Plate Reader (Molecular Devices, Sunnyvale, Calif.). The cells were activated by the addition of the P2X7 receptor agonist 2′(3) —O-(4-benzoylbenzoyl)adenosine 5′-triphosphate (Bz-ATP from Sigma-Aldrich, St. Louis, Mo.), and the fluorescence was monitored for 90 seconds. The fluorescent signal was determined as the total area over the 90 second run time. Using this protocol, representative Triazolopyrazinone Compounds, compounds 1471 were tested. Tables 3 to 6 show the concentration at which 50% of the maximum response in the Ca^++ was inhibited (IC50) for each of the test compounds.
row,Compound,IC50
1,Cc1c(Cl)cccc1-n1ccn2c(SCc3cc(Br)cc(Br)c3)nnc2c1=O,522 nM
2,Cc1cccc(C)c1CSc1nnc2c(=O)n(-c3cccc(Cl)c3C)ccn12,245 nM
